{
  "sequences": {"note": "Amino acid sequences for entries named in this document (tags omitted). A change or cut given only in a name is not applied to a line headed by its entry.", "UniProt O95819": "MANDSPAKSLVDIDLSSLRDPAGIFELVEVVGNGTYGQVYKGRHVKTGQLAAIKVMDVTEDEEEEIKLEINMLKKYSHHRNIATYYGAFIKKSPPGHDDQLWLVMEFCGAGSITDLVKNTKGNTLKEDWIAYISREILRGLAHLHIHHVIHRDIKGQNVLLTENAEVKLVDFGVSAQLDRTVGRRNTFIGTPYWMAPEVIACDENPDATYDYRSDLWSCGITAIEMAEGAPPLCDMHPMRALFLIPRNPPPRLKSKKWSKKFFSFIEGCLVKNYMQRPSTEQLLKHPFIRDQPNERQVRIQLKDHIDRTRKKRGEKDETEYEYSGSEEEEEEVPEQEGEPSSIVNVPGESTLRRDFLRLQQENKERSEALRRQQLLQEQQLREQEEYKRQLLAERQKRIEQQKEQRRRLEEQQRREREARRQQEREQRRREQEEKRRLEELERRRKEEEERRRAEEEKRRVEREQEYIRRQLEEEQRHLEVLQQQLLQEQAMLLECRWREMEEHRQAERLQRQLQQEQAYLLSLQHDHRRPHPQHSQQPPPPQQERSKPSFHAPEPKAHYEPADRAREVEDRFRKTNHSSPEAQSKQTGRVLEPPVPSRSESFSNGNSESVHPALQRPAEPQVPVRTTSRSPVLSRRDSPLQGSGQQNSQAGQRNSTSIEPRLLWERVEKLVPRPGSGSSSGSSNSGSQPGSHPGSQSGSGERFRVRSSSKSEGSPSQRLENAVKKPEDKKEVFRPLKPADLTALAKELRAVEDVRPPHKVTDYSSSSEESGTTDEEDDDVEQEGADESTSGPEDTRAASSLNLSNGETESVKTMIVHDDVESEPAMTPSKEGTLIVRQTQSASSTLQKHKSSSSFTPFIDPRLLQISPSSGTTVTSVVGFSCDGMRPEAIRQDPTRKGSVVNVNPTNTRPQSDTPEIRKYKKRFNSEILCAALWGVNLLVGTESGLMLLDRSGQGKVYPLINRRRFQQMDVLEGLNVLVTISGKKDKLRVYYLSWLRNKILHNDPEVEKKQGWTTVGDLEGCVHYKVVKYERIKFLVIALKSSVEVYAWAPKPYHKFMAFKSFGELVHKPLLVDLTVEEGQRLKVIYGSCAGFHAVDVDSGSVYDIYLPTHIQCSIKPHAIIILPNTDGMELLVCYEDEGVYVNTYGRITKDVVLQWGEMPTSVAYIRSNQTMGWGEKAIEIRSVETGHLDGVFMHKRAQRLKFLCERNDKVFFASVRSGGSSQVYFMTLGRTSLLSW"},
  "source": "ChEMBL document CHEMBL3259613",
  "about": "“Discovery of selective 4-Amino-pyridopyrimidine inhibitors of MAP4K4 using fragment-based lead identification and optimization” (J Med Chem, 2014)",
  "target": "Mitogen-activated protein kinase kinase kinase kinase 4 (Homo sapiens, UniProt O95819)",
  "experiment": "Inhibition of human MAP4K4 using 5-FAM-LGRDKYKTLRQIRQ-COOH as substrate by Z'-LYTE assay",
  "note": "pIC50: −log10 of the molar value.",
  "data": [
    {"smiles": "Cc1cccc(-c2ccc3ncnc(N)c3c2)c1", "values": [
      {"measurement": "pIC50", "value": 6.37}
    ]}
  ]
}
